Data taken from patent US12599592B2, “Therapeutic small molecules for treatment of pulmonary hypertension” (UNIVERSITY OF PITTSBURGH—OF THE COMMONWEALTH SYSTEM OF …, priority 2020, dated 2026).

Experiments:
[1] = tested on: SU5416-hypoxic pulmonary arterial hypertension rats; assay: SU5416-hypoxia pulmonary arterial hypertension rat model; settings: I-BET762 30 mg/kg i.p. daily, Days 21-35
[2] = tested on: monocrotaline-exposed pulmonary arterial hypertension rats; assay: Monocrotaline (MCT) pulmonary arterial hypertension rat model; settings: I-BET762 30 mg/kg i.p. daily, Days 12-26 post-MCT
chronically hypoxic mice = assay: Hypoxia-induced pulmonary hypertension mouse model; settings: I-BET762 30 mg/kg daily oral gavage, chronic hypoxia

## CCNC(=O)C[C@@H]1N=C(c2ccc(Cl)cc2)c2cc(OC)ccc2-n2c(C)nnc21 [I-BET762, reference compound]
[1]
  Fulton index (RV/LV+S): reduced
[2]
  Fulton index (RV/LV+S): reduced
  LGALS8 in pulmonary arterioles (immunofluorescence): decreased
  RVSP: reduced
  arteriolar muscularization: reduced
  cleaved caspase-3 (CC-3) in pulmonary arterioles: decreased
Chronically hypoxic mice
  Fulton index: without significant effect
